Patent US8563473B2, “Aqueous herbicidal concentrates of auxinic carboxylic acids with reduced eye irritancy” (Dow AgroSciences, LLC., priority 2010, dated 2013)

Test system: eye (cornea, iris, conjunctivae) of New Zealand albino rabbit
Assay: Eye irritation testing in rabbit (OECD 405 guideline)
Settings: most sensitive animal, 21 days after application; maximum score 10

Substance: choline salt of 2,4-D [2,4-D choline]
- Eye irritation score, Conjunctivae (conjunctivitis): no or minimal conjunctivitis
